# Measurements as given in PubChem BioAssay AID1159607 (Small Molecule Screening Facility, UW Madison, 2016).
# Where “and” joins values, the source holds several entries; their conditions need not be identical. Identical values can stand only once. The list shows a part of the results, in another mix than the full data. Calls of active or inactive are those of the source. No stated cut-off is given here; in the data, active means FP signal below about 40; inactive means the rest.
# Test system: RMI core complex (RMI1/RMI2) binding to FANCM MM2 peptide, human
# Assay: disruptors of RMI1/RMI2 association with MM2 peptide – biochemical, fluorescence polarization, human, primary screen (AID 1159607)
# Details: RMI core complex with F-MM2 peptide, at 33 µM, stronger effect = lower value
row,Compound,FP signal (polarization)
1,Cc1sc2nc3n(c(=O)c2c1C)CC(CI)S3 (stereo not drawn),inactive: 79
2,COc1ccc(NC(=NP(=O)(N2CCOCC2)N2CCOCC2)N2CCOCC2)cc1,inactive: 55
3,O=P(N=c1nc(-c2ccccc2)n(-c2ccccc2)s1)(N1CCOCC1)N1CCOCC1,inactive: 61
4,COC1=NP(OC)(OC)=Nc2c1sc(=NC(=Nc1ccccc1)c1ccc(OC)cc1)n2-c1ccccc1,inactive: 48
5,NC(=O)Nc1ccc([As](=O)(O)O)cc1,inactive: 60
6,CN(C(=O)Cc1ccccc1)[C@@H]1CC[C@]2(CCCO2)C[C@H]1N1CCCC1,inactive: 59
7,O=C(NC(Sc1ccc(Cl)cc1)C(Cl)(Cl)Cl)c1ccccc1Cl (stereo not drawn),inactive: 66
8,CC(=O)NC(SC1=NCCS1)C(Cl)(Cl)Cl (stereo not drawn),inactive: 60
9,CCOP(=O)(Nc1cccc2ccccc12)OCC,inactive: 65
10,CN(C(=O)Cc1ccc(Cl)c(Cl)c1)[C@@H]1CC[C@]2(CCCO2)C[C@H]1N1CCCC1,inactive: 60
11,O=C(OC1CN2CCC1CC2)c1ccc(Cl)cc1 (stereo not drawn),inactive: 57
12,CN(C(=O)Cc1ccc(Cl)c(Cl)c1)[C@@H]1CCCC[C@H]1N1CCCC1,inactive: 57
13,O=c1[nH]c(SCC(Cl)CSc2ccc([N+](=O)[O-])cc2)nc2ccccc12 (stereo not drawn),inactive: 58
14,CN(CCCl)Cc1cc(Cl)c(NC2=NCCN2)c(Cl)c1,inactive: 62
15,O=c1[nH]c(SCC(Cl)CSc2ccccc2)nc2sc3c(c12)CCC3 (stereo not drawn),inactive: 62
16,Cc1cc(C)c(C#N)c(SCC(Br)CBr)n1 (stereo not drawn),active: -21
17,O=C1CCCCC1CNCCBr (stereo not drawn),inactive: 61
18,CCOC(=O)/C(=N\Nc1ccc([N+](=O)[O-])cc1)N1CC1,inactive: 55
19,CCOc1ccc(Nc2c([N+](=O)[O-])cc(C(F)(F)F)cc2[N+](=O)[O-])c([N+](=O)[O-])c1,inactive: 55
20,CN(C(=O)Cc1ccc(Cl)c(Cl)c1)[C@@H]1CCCC[C@@H]1N1CCCC1,inactive: 61
21,Cc1cc(NC(=O)COC(=O)C2(O)c3ccccc3-c3ccccc32)no1,inactive: 62
22,CN(C(=O)Cc1ccc(Cl)c(Cl)c1)[C@H]1CCCC[C@@H]1N1CCCC1,inactive: 52 and inactive: 60
23,O=C(CCNCCCl)c1ccccc1,inactive: 64
